Measurements taken from patent US20260345623A1, “NOVEL TRICYCLIC HETEROCYCLIC CARBALDEHYDE COMPOUND AND PHARMACEUTICAL COMPOSITION, CONTAINING SAME, FOR IRE1alpha INHIBITION” (HANMI PHARM. CO., LTD., priority 2022, published 2026).

By UniProt entry, the sequences of proteins in these tests, tags left out. Residues count along the entry.
UniProt O75460, 19-977: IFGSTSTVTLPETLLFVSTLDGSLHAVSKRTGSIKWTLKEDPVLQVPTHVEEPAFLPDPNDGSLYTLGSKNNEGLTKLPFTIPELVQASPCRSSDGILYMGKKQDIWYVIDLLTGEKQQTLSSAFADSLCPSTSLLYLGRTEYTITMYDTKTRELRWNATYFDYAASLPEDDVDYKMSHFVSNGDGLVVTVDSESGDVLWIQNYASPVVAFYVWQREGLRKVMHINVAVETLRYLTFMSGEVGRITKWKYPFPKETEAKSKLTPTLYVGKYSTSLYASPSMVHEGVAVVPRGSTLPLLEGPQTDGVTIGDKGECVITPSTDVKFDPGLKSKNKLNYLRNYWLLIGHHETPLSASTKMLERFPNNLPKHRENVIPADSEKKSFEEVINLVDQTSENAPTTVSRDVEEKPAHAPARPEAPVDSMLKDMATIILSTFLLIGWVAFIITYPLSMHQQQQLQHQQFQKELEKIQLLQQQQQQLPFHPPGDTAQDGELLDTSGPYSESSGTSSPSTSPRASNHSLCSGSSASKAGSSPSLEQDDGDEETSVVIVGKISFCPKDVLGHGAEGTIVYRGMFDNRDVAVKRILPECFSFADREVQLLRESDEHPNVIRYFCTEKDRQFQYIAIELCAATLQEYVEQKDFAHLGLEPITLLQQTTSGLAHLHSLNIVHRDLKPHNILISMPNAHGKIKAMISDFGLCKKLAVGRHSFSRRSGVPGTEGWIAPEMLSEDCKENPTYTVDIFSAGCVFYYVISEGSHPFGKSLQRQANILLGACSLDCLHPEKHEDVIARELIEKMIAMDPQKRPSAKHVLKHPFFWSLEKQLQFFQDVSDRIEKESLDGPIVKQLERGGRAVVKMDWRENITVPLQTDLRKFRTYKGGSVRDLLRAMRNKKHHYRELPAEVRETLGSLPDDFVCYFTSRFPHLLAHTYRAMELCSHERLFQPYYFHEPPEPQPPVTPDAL

Target: T1, spliced XBP1 mRNA (target of IRE endonuclease) in MCF-7 cancer cells (Homo sapiens, UniProt O75460)
T1 construct: tunicamycin ER stress; RT-PCR of spliced XBP1 mRNA (RNase domain activity)
Test: Spliced XBP1 mRNA Measurement Test (RT-PCR, tunicamycin-induced ER stress, MCF-7 cells)
Format: cell-based
Settings: 1 hour pre-treatment with compound, 2 μg/mL tunicamycin 6 or 24 hours, spliced XBP1 corrected by total XBP1
Method: With respect to these synthetic compounds, reverse transcription polymerase chain reaction (RT-PCR) experiments were conducted on MCF-7 cancer cells to confirm the effect thereof on the mRNA and protein amounts of spliced XBP1, which is the target of IRE endonuclease. A reverse transcription polymerase chain reaction is a test method in which RNA is extracted from cells, reverse transcriptase is used to make cDNA, and relative mRNA expression level is measured through a polymerase chain reaction.
Briefly, MCF-7 cells were seeded in a 12-well plate and cultured in an incubator including 5% CO2 for one day. On the next day, compounds, which were 10-fold serially diluted from 10,000 nM, were pre-treated for 1 hour, and then, treated with 2 μg/mL tunicamycin for 6 or 24 hours to induce endoplasmic reticulum stress, followed by cell lysis to obtain RNA. […] The amount of mRNA of each of spliced XBP1 and total XBP1 was measured by a polymerase chain reaction through real time PCR by mixing each cDNA sample with a PCR reaction mixture including a primer pair capable of binding specifically to each target and SYBR green dye. The expression level of spliced XBP1 was corrected by the total expression level of XBP1, and the relative expression levels of spliced XBP1 between samples were compared and analyzed. […]

IC50: < 100 nM
Structure (SMILES): COc1cc2c(C)c(CC(=O)N3CCOCC3)c(=O)oc2c(C=O)c1O [MKC8866, reference compound]
